High-throughput results from PubChem.
TbMetRS inhib = blocks T. brucei methionyl-tRNA synthetase activity | hit rate 0.4% among 360,000 | purified T. brucei MetRS, ATP depletion, Kinase-Glo luminescence | inhibition, % at 11.9 µM;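 active = inhibition above a per-plate cutoff of the control wells' mean inhibition plus 3 SD, cut at about 5.5% in these data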
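Test system: purified T. brucei MetRS enzyme. Also added: ATP, methionine and E. coli bulk tRNA substrates. Compound: 11.9 µM single point. Schedule: 15 min enzyme-compound preincubation, 2 h reaction, 10 min detection, 25 °C. Signal: luciferase luminescence of residual ATP, Kinase-Glo. Evaluation: percent inhibition versus plate control medians. Controls: DMSO wells, low control.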
Pemphigus Ab inh = inhibitors of pemphigus antibody binding to human desmoglein-3 | P32926 | DSG3-coupled beads, scFv-anti-DSG3-GFP binding, flow cytometry; hits give low values | binding (percent of control), % at 10 µM | hit rate 0.48% among 310,000;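 active = binding more than 3 SD below its plate's average and above zero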;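 also: hits lower antibody fragment binding to DSG3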
Yeast UUG start = modulators of start codon recognition fidelity in yeast; AID 602363; activity score, % at 18.7 µM; S. cerevisiae UUG-firefly luciferase reporter, luminescence/redox ratio; actives 0.13% (n = 350,000);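 active = replicate mean at a twofold rise or more, about +100% in these data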;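 note: firefly luciferase made from a UUG start codon reports start codon fidelity; reporter light over untreated wells divided by growth signal over untreated wells; some hits fall short of that in this replicate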
Rce1 inh = yeast Ras-converting enzyme inhibition; Q03530; yeast membranes, quenched prenylated peptide cleavage fluorescence; calls only; hit rate 0.27% among 290,000; AID 2563;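 active = fall in fluorescence gain of 50% or more versus controls, with final raw signal at or below 3038400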
Arr AP2 block = inhibitors of human beta-arrestin and AP2 interaction | inhibition, % at 10 µM | hit rate 0.31% among 340,000 | FITC-arrestin peptide / GST-AP2 beads, flow cytometry; AP2 beta2 appendage carries R879A mutation;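 active = inhibition above a set limit, near 3 SD of compounds lacking own fluorescence, cut at about 54% in these data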
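Test system: GST-tagged AP2 beta2-adaptin appendage (R879A) on 4 µm glutathione beads; also added: fluorescein-tagged arrestin peptide at 50 nM final; timing: 12 min plus 1 h, RT; signal: flow cytometry, FL1 (488/535 nm); read-out: percent drop in bead-associated FITC signal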
Tb MetRS conf = Trypanosoma brucei MetRS inhibition confirmed. shares compounds with TbMetRS inhib. T. brucei MetRS enzyme, luminescence (ATP depletion). inhibition, % at 11.9 µM. hit rate 93% among 1,400. AID 624412; in the data active = inhibition above about 7%
Jurkat tox = kills Jurkat cells in T. brucei MetRS counterscreen; Jurkat cells viability, ATP luminescence; inhibition, % at 8.3 µM; hit rate 12% among 1,400; AID 624413; shares compounds with TbMetRS inhib; in the data active = inhibition above about 15%
Tb MetRS inh FP = T. brucei MetRS inhibition, orthogonal assay; shares compounds with TbMetRS inhib; purified T. brucei MetRS, fluorescence polarization; inhibition, % at 11.9 µM; hit rate 44% among 1,400; in the data active = inhibition above about 17%
Hits are given with their value; – = inactive; · = no result. Compounds with a hit are over-represented: about 1.2% of the library has one in this group of screens.

SMILES | TbMetRS inhib | Pemphigus Ab inh | Yeast UUG start | Rce1 inh | Arr AP2 block | Tb MetRS conf | Jurkat tox | Tb MetRS inh FP
O=C(Nc1ccccc1)c1ccc(=O)n(Cc2cccc(Cl)c2)c1 | 42.6 | – | · | – | – | 57.7 | – | 27.8
CNC(=S)NNC(=O)c1ccc(=O)n(Cc2cccc(C(F)(F)F)c2)c1 | 6.1 | – | – | – | – | 12.7 | – | –
CCC(=O)NC[C@H]1[C@H](c2ccccc2)[C@H](CO)N1C(=O)C1CCC1 | · | · | – | · | · | · | · | ·
O=C1[C@@H]2Cc3c([nH]c4ccccc34)C(c3cccc(Br)c3)N2C(=O)CN1C1CCN(Cc2ccccc2)CC1 (stereo not given in full) | 41.4 | – | – | – | – | 54.1 | – | 27.8
COc1ccc(OC)c(C2c3[nH]c4ccccc4c3C[C@H]3C(=O)N(C4CC4)CC(=O)N23)c1 (stereo not given in full) | – | – | – | – | – | · | · | ·
COc1cccc(C2c3[nH]c4ccccc4c3C[C@H]3C(=O)N(C4CC4)CC(=O)N23)c1 (stereo not given in full) | 15.9 | – | – | – | – | 29.9 | – | 21.7
O=C1[C@@H]2Cc3c([nH]c4ccccc34)C(c3ccccc3)N2C(=O)CN1C1CCN(Cc2ccccc2)CC1 (stereo not given in full) | – | – | – | – | – | · | · | ·
COc1cccc(C2c3[nH]c4ccccc4c3C[C@H]3C(=O)N(C)CC(=O)N23)c1 (stereo not given in full) | 15.9 | – | – | – | – | 30.9 | – | –
COc1ccc(C2c3[nH]c4ccccc4c3C[C@H]3C(=O)N(C)CC(=O)N23)cc1OC (stereo not given in full) | – | – | – | – | – | · | · | ·
C[C@H](NC(=O)C[C@@H]1CC[C@@H]2[C@H](COC[C@H](O)CN2C(=O)Nc2ccccc2)O1)c1ccccc1 | · | · | – | · | · | · | · | ·
N#Cc1c(NCCCO)nc(NCc2ccccc2)c2c1CCN(Cc1ccccc1)C2 | 42.0 | – | · | – | – | 35.6 | – | 19.1
COc1ccc(NC(=O)N(C)C[C@H]2OCCCC[C@@H](C)Oc3ccc(NS(=O)(=O)c4cn(C)cn4)cc3C(=O)N([C@@H](C)CO)C[C@H]2C)cc1 | · | · | – | · | · | · | · | ·
Cc1ccc(S(=O)(=O)Nc2ccc3c(c2)CC(=O)N([C@H](C)CO)C[C@H](C)[C@@H](CN(C)S(C)(=O)=O)O3)cc1 | · | · | – | · | · | · | · | ·
Cc1ccc(S(=O)(=O)Nn2c(O)c(C=C3N=c4ccccc4=N3)sc2=S)cc1 | 77.7 | – | · | – | – | 93.3 | – | 57.0
O=C(Nn1c(O)c(C=C2N=c3ccccc3=N2)sc1=S)c1ccccc1 | – | – | – | – | – | · | · | ·
O=C(Nn1c(O)c(C=C2N=c3ccccc3=N2)sc1=S)c1ccc(Cl)cc1 | 6.4 | – | · | – | – | 21.0 | – | 30.1
Cc1ccc(C(=O)Nn2c(O)c(C=C3N=c4ccccc4=N3)sc2=S)cc1 | 7.5 | – | – | – | – | 14.1 | – | 18.4
O=C(Nn1c(O)c(C=C2N=c3ccccc3=N2)sc1=S)c1cccc(Cl)c1 | – | – | – | – | – | · | · | ·
C[C@H]1CN([C@@H](C)CO)C(=O)c2cc(C#Cc3cccc(F)c3)cnc2O[C@H]1CN(C)C(=O)C1CCOCC1 | · | · | – | · | · | · | · | ·
Cc1ccc(C2NC(=NCc3ccccc3)Nc3nc(C)cc(=O)n32)cc1 (stereo not given) | 7.6 | – | – | – | – | 17.2 | – | –
O=C(NCC1CC1)[C@H]1[C@H](CO)[C@H]2Cn3c(ccc(-c4cccnc4)c3=O)[C@@H]1N2C(=O)C1CCC1 | · | · | – | · | · | · | · | ·
O=C(NCc1cccc(Cl)c1)c1cnn2c1NC(c1ccco1)CC2C(F)(F)F (stereo not given) | 10.4 | – | – | – | – | 22.6 | – | –
COCCNC(=O)c1cnn2c1NC(c1ccco1)CC2C(F)(F)F (stereo not given) | – | · | – | – | – | · | · | ·
COc1ccc(CN(C)C[C@@H]2Oc3ccc(NC(=O)Nc4ccc5c(c4)OCO5)cc3C(=O)N([C@H](C)CO)C[C@H]2C)cc1 | · | · | – | · | · | · | · | ·
C=CCc1cccc(CNc2nc3ccccc3n2C(C)C)c1O | 6.7 | – | – | – | – | 10.8 | – | –
SMILES | TbMetRS inhib | Pemphigus Ab inh | Yeast UUG start | Rce1 inh | Arr AP2 block | Tb MetRS conf | Jurkat tox | Tb MetRS inh FP
C=CCn1c(NCc2ccccc2O)nc2ccccc21 | – | – | – | – | – | · | · | ·
CC(C)n1c(NCc2ccccc2O)nc2ccccc21 | – | – | – | – | – | · | · | ·
C=CCn1c(NCc2cc(Cl)ccc2O)nc2ccccc21 | 13.2 | – | – | – | – | 24.9 | – | –
C[C@H](CO)N1C[C@H](C)[C@@H](CN(C)C)Oc2ccc(NC(=O)Cc3cn(C)c4ccccc34)cc2CC1=O | · | · | – | · | · | · | · | ·
C[C@@H]1CN([C@@H](C)CO)S(=O)(=O)c2ccc(C#Cc3ccccc3)cc2O[C@@H]1CN(C)S(=O)(=O)c1cn(C)cn1 | · | · | – | · | · | · | · | ·
CN(CCc1nc2ccc(Cl)cc2[nH]1)Cc1nc(CC2CC2)no1 | 41.7 | – | · | – | – | 61.8 | – | 27.7
O=C(CSc1nnc(Cc2ccc(Cl)cc2)o1)Nc1ccccc1 | 7.5 | – | · | – | – | 13.7 | – | –
C[C@@H]1CN([C@H](C)CO)C(=O)c2cc(NS(=O)(=O)c3ccc(Cl)cc3)ccc2O[C@@H]1CN(C)C(=O)Nc1ccccc1 | · | · | – | · | · | · | · | ·
COc1ccc(S(=O)(=O)N(C)C[C@@H]2Oc3ccc(NC(=O)C4CC4)cc3C(=O)N([C@H](C)CO)C[C@H]2C)cc1 | · | · | – | · | · | · | · | ·
N#Cc1nc(COc2ccc(Cl)cc2)oc1NCc1ccc2c(c1)OCO2 | 5.7 | – | – | – | – | 9.8 | – | –
Cc1cccc(OCc2nc(C#N)c(NCc3ccc4c(c3)OCO4)o2)c1 | – | – | – | – | – | · | · | ·
COC(=O)CN1C(=S)N(c2ccc(Cl)cc2)C(=O)C1CC(=O)Nc1ccc(Cl)cc1 (stereo not given) | 23.6 | – | – | – | – | 39.3 | – | 38.4
C[C@@H]1CN([C@@H](C)CO)C(=O)c2cccc(NS(=O)(=O)c3cccs3)c2O[C@H]1CN(C)Cc1ccc(Oc2ccccc2)cc1 | · | · | – | · | · | · | · | ·
Cc1cc(Br)cc(Br)c1OCC(=O)NNC(=O)Nc1ccccc1 | 7.5 | – | – | – | – | 44.5 | – | 30.4
C[C@H](CO)N1C[C@H](C)[C@@H](CN(C)C(=O)Nc2ccccc2)Oc2ccc(NS(=O)(=O)c3ccccc3)cc2CC1=O | · | · | – | · | · | · | · | ·
COC(=O)c1cc(-c2ccc(Cl)cc2Cl)n[nH]1 | 12.0 | – | – | – | – | 29.2 | – | 17.8
C[C@@H]1CN([C@@H](C)CO)C(=O)c2cc(NS(C)(=O)=O)ccc2O[C@@H](C)CCCCO[C@@H]1CN(C)C | · | · | – | · | · | · | · | ·
O=C(NCCNc1ccc([N+](=O)[O-])cc1)c1ccccc1Cl | – | – | – | · | · | · | · | ·
